Experimental data reported in ChEMBL document CHEMBL5576140, “Computational Design of Pore-Forming Peptides with Potent Antimicrobial and Anticancer Activities” (J Med Chem, 2024).

Experiment: Anti-cancer activity against human MEC-1 cells incubated for 24 hrs by WST assay
Assay type: functional, cell-based
Details: MEC1, 24 h

SMILES: CC[C@H](C)[C@H](NC(=O)CN)C(=O)NCC(=O)N[C@@H](C)C(=O)N[C@H](C(=O)N[C@@H](CC(C)C)C(=O)N[C@@H](CCCCN)C(=O)N[C@H](C(=O)N[C@@H](CC(C)C)C(=O)N[C@H](C(=O)N[C@H](C(=O)NCC(=O)N[C@@H](CC(C)C)C(=O)N1CCC[C@H]1C(=O)N[C@@H](C)C(=O)N[C@@H](CC(C)C)C(=O)N[C@H](C(=O)N[C@@H](CO)C(=O)N[C@@H](Cc1c[nH]c2ccccc12)C(=O)N[C@H](C(=O)N[C@@H](CCCCN)C(=O)N[C@@H](CCCNC(=N)N)C(=O)N[C@@H](CCCCN)C(=O)N[C@@H](CCCNC(=N)N)C(=O)N[C@@H](CCC(N)=O)C(=O)N[C@@H](CCC(N)=O)C(N)=O)[C@@H](C)CC)[C@@H](C)CC)[C@@H](C)O)[C@@H](C)O)C(C)C)C(C)C [MELITTIN]
- IC50: ≤ 5 µM
